Measured values: patent US7671079B2, “Sulfonyltetrahydro-3H-benzo(e)indole-8-amine compounds as 5-hydroxytryptamine-6 ligands” (Wyeth LLC, priority 2003, dated 2010)

Chains of the proteins cited; added tags and fusions are not shown.
UniProt P50406, whole entry: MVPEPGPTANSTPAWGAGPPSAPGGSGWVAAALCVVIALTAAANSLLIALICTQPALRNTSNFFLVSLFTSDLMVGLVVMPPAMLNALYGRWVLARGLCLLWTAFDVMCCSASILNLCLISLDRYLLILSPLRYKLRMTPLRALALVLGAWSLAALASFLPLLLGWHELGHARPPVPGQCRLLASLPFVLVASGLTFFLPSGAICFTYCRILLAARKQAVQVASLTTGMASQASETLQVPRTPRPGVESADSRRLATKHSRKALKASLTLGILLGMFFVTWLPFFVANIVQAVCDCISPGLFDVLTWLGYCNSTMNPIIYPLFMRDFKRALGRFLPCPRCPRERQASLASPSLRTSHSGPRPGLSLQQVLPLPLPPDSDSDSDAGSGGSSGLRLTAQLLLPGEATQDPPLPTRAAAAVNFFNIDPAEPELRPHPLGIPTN

What follows are compounds tested against human cloned 5-HT6 receptors (Homo sapiens, UniProt P50406) (assay: 5-HT6 binding affinity, [3H]-LSD displacement on membranes of Hela cells expressing human cloned 5-HT6 receptors). Conditions: read-out: 5-HT6 binding Ki; [3H]-LSD 3.0 nM, Hela cell membranes, 120 min at room temperature.

For `Cc1ccc(S(=O)(=O)n2ccc3c4c(ccc32)CCC(NC(C)C)C4)cc1` (stereo not drawn), which Ki is on record?
The Ki was 26 nM.

How did the Ki turn out when `CCCCNC1CCc2ccc3c(ccn3S(=O)(=O)c3ccc(C)cc3)c2C1` (stereo not drawn) was run?
The Ki was 173 nM.

How did the Ki turn out when `CCCN(CCC)C1CCc2ccc3c(ccn3S(=O)(=O)c3ccc(C)cc3)c2C1` (stereo not drawn) was run?
The Ki was 173 nM.
